## Yeast mating assay B: variants of the scFv Ab-14

Binding partner: SARS-CoV-2 spike HR2 peptide, sequence PDVDLGDISGINAS.

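Designed CDR sequences, proposed from the first random library and measured here. Group labels follow the data file (Ctrl: baseline library sampled from a position-specific scoring matrix, with some repeated check sequences; GPLM: also part of the Gaussian process libraries; Gen: genetic algorithm; a sequence that several methods proposed may carry one label only). Affinity was read by AlphaSeq, a pooled yeast mating assay with surface-displayed partners. Binding brings cells together so that they mate, and sequencing counts the barcode pairs among the diploids. Scores were corrected for input abundance and mapped to Kd with protein pairs of known affinity run in the same pool. Mating was done six times.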

Each scFv is VH, the linker GGGGSGGGGSGGGGS, VL, as in the parent Ab-14, and differs from it in the CDRs of the heavy chain only.
VH: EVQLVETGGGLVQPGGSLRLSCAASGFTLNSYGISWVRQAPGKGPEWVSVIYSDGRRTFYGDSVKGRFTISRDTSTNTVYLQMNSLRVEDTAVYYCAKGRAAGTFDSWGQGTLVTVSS
VL: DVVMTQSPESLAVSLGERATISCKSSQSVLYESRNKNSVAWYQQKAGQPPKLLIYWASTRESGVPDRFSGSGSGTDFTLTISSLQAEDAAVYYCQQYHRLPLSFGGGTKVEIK

Changes read parent residue, position, new residue, counted from the first residue of the VH shown.
The read-out is the apparent dissociation constant on a log10 scale (nM): the lower, the stronger.
"n.d." marks a missing value. The strain was present, yet no cells mated with the target were sequenced in that replicate, which points to weak or no binding.
A sequence that the file lists under several names has all its replicates listed entry by entry, parted by semicolons.
The authors' rule: three or more of the six replicates give a measured affinity, fewer mean a poor binder.
As a blank, each scFv also met three strains without target: over all heavy chain designs, 1% of these pairings were detected, typically at 2.08 and seldom below 0.84. Also given: how often the same scFv was detected with the empty control strains, with their mean in brackets.
The parent sequence was in this pool as ten entries: three were never detected, three once, and four in most replicates, with averages from 0.34 to 2.37.
Values of this round are not directly comparable with the first-round values of the same sequences.

| changes | group | log10 Kd, replicates | control signals |
|---|---|---|---|
| G61D S63N A101Y D106H | Ctrl | n.d. n.d. n.d. n.d. n.d. n.d. | 0 of 18 |
| G61M G103W | Ctrl | n.d. n.d. n.d. n.d. n.d. n.d. | 0 of 18 |
| S53A S63K D106P S107Q | Ctrl | n.d. n.d. n.d. n.d. n.d. n.d. | 0 of 18 |
| S31Q R56L G103I S107T | Ctrl | n.d. n.d. n.d. n.d. n.d. n.d. | 0 of 18 |
| G61S G99D | Ctrl | n.d. n.d. 1.93 n.d. n.d. n.d. | 0 of 18 |
| R100T A102T | Ctrl | n.d. n.d. n.d. n.d. n.d. n.d. | 0 of 18 |
| S35H S63E | Ctrl | n.d. 2.05 1.71 n.d. n.d. n.d. | 0 of 18 |
| T28D A101S | Ctrl+GPLM_Gen | 0.64 0.36 0.20 0.42 0.88 0.75; n.d. n.d. 1.56 1.65 0.99 1.22 | 0 of 36 |
| S31D A101K | Ctrl | 1.63 1.50 2.26 2.09 1.15 0.92 | 1 of 18 (1.84) |
| S31K S53A G61S D106C | Ctrl | n.d. 2.78 n.d. n.d. n.d. 2.17 | 0 of 18 |
| T28S R56S F59S K65R | Ctrl | 0.91 1.95 n.d. n.d. 1.32 1.82 | 0 of 18 |
| T28S R100A | Ctrl+GPLM_Gen | 0.89 0.50 0.55 0.29 0.20 0.62; 0.07 0.48 0.11 0.54 0.52 0.18 | 1 of 36 (1.21) |
| A102G D106I | Ctrl | n.d. n.d. n.d. n.d. n.d. n.d. | 0 of 18 |
| F59L K65V R100Q A101G | Ctrl | n.d. n.d. n.d. n.d. n.d. n.d. | 0 of 18 |
| F27E R100D T104D F105S | Ctrl | n.d. n.d. n.d. n.d. n.d. n.d. | 0 of 18 |
| S31E S53A R100S T104C | Ctrl | n.d. n.d. n.d. n.d. n.d. n.d. | 0 of 18 |
| V50R A102S | Ctrl | n.d. n.d. n.d. n.d. n.d. n.d. | 1 of 18 (1.46) |
| F27L S53A S107M | Ctrl | 2.07 1.11 1.38 1.00 1.20 1.24 | 0 of 18 |
| R56V S107T | Ctrl | n.d. n.d. n.d. n.d. n.d. n.d. | 0 of 18 |
| T28P S35H A101N | Ctrl | n.d. n.d. n.d. n.d. n.d. n.d. | 0 of 18 |
| L29I N30R | Ctrl | n.d. n.d. n.d. n.d. n.d. n.d. | 0 of 18 |
| I34N G61K D62G K65V | Ctrl | n.d. n.d. n.d. n.d. n.d. n.d. | 0 of 18 |
| R56C F59A S63Q R100S | Ctrl | 1.15 1.84 1.34 2.60 1.30 1.48 | 0 of 18 |
| L29N F59Y K65V R100E A101L S107N | Ctrl | 2.93 n.d. n.d. n.d. n.d. n.d. | 0 of 18 |
| T28S G61T R100I | Ctrl | 0.27 0.43 0.16 n.d. -0.49 n.d. | 0 of 18 |
| S63Q A102K | Ctrl | n.d. n.d. n.d. n.d. n.d. n.d. | 0 of 18 |
| D106S S107H | Ctrl | 0.85 0.59 1.53 1.55 0.74 0.95 | 0 of 18 |
| A101L A102T | Ctrl | n.d. n.d. n.d. n.d. n.d. n.d. | 0 of 18 |
| T28D R100P | Ctrl | 0.16 0.15 -0.14 0.01 0.28 0.09 | 0 of 18 |
| R100Q G103D | Ctrl | n.d. n.d. n.d. n.d. n.d. n.d. | 0 of 18 |
| G26T T28Q Y60N R100Q | Ctrl | n.d. n.d. n.d. n.d. n.d. n.d. | 0 of 18 |
| T28M S63D G99E A102K | Ctrl | n.d. n.d. n.d. n.d. n.d. n.d. | 0 of 18 |
| S35H T58V A102H | Ctrl | n.d. n.d. n.d. n.d. n.d. n.d. | 2 of 18 (2.78) |
| S53A R56I F59M G61H S63R S107V | Ctrl | 1.41 1.21 0.63 0.87 1.41 1.70 | 1 of 18 (2.98) |
| R100H A102K | Ctrl | n.d. n.d. n.d. n.d. n.d. n.d. | 0 of 18 |
| S31E R56M R100S A101E | Ctrl | -0.18 -0.22 -0.14 -0.65 -0.25 -0.37 | 0 of 18 |
| L29I S31D D106E | Ctrl | 2.41 2.80 2.50 2.91 1.95 1.58 | 1 of 18 (2.61) |
| G99A | Ctrl | 2.11 n.d. n.d. n.d. n.d. n.d. | 0 of 18 |
| I51M T58C K65R A101I A102P | Ctrl | n.d. n.d. n.d. n.d. n.d. n.d. | 0 of 18 |
| S53A F59A A102Q | Ctrl | 2.59 2.89 n.d. 2.13 2.61 n.d. | 1 of 18 (2.31) |
| Y60M S107Q | Ctrl | n.d. n.d. n.d. 1.40 n.d. n.d. | 0 of 18 |
| T28D S107W | Ctrl | n.d. 2.12 n.d. 1.48 n.d. n.d. | 0 of 18 |
| T28E T58E R100S | Ctrl | n.d. n.d. n.d. 1.37 n.d. 2.40 | 0 of 18 |
| S31L | Ctrl | 0.71 1.28 n.d. n.d. n.d. n.d. | 0 of 18 |
| L29M S107L | Ctrl | n.d. n.d. n.d. n.d. n.d. n.d. | 1 of 18 (1.64) |
| V50A F59Y G61S R100Q A101S F105I S107W | Ctrl | n.d. n.d. n.d. n.d. n.d. n.d. | 0 of 18 |
| R56M R100K | Ctrl | n.d. 2.14 1.63 1.66 1.93 2.45 | 0 of 18 |

Extract of 7 entries:

| changes | group | log10 Kd, replicates | control signals |
|---|---|---|---|
| S31E R56M R100S A101E | Ctrl | -0.18 -0.22 -0.14 -0.65 -0.25 -0.37 | 0 of 18 |
| F27L S53A S107M | Ctrl | 2.07 1.11 1.38 1.00 1.20 1.24 | 0 of 18 |
| V50R A102S | Ctrl | n.d. n.d. n.d. n.d. n.d. n.d. | 1 of 18 (1.46) |
| G99A | Ctrl | 2.11 n.d. n.d. n.d. n.d. n.d. | 0 of 18 |
| S31Q R56L G103I S107T | Ctrl | n.d. n.d. n.d. n.d. n.d. n.d. | 0 of 18 |
| R100T A102T | Ctrl | n.d. n.d. n.d. n.d. n.d. n.d. | 0 of 18 |
| S53A F59A A102Q | Ctrl | 2.59 2.89 n.d. 2.13 2.61 n.d. | 1 of 18 (2.31) |

Values reported by Li et al. 2023, doi:10.1038/s41467-023-39022-2 (FLAb copy).